{"sequences": {"note": "Chains of the proteins cited; added tags and fusions are not shown. Residues count along the entry.", "UniProt P35222, 2-781 limits assumed": "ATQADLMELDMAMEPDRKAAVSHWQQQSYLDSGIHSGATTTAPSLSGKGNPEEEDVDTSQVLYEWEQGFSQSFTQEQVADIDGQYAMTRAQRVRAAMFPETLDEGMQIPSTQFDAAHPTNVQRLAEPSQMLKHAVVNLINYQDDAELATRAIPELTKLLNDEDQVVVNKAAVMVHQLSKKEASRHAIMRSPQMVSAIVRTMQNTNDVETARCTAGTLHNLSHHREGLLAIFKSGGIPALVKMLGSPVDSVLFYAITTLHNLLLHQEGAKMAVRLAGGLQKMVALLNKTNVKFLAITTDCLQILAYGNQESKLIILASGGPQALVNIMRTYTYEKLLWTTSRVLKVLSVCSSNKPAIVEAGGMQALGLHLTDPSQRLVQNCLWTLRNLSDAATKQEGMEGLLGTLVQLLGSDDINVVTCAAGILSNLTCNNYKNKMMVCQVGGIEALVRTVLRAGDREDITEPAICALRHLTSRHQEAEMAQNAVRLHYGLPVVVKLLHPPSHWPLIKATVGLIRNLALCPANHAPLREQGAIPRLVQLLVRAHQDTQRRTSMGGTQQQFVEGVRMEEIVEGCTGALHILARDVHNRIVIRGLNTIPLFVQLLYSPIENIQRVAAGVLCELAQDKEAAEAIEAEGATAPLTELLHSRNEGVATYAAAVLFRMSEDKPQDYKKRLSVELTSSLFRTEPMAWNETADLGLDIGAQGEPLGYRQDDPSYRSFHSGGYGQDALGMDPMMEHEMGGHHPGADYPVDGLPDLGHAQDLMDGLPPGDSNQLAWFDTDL", "UniProt P35222, whole entry, species assumed": "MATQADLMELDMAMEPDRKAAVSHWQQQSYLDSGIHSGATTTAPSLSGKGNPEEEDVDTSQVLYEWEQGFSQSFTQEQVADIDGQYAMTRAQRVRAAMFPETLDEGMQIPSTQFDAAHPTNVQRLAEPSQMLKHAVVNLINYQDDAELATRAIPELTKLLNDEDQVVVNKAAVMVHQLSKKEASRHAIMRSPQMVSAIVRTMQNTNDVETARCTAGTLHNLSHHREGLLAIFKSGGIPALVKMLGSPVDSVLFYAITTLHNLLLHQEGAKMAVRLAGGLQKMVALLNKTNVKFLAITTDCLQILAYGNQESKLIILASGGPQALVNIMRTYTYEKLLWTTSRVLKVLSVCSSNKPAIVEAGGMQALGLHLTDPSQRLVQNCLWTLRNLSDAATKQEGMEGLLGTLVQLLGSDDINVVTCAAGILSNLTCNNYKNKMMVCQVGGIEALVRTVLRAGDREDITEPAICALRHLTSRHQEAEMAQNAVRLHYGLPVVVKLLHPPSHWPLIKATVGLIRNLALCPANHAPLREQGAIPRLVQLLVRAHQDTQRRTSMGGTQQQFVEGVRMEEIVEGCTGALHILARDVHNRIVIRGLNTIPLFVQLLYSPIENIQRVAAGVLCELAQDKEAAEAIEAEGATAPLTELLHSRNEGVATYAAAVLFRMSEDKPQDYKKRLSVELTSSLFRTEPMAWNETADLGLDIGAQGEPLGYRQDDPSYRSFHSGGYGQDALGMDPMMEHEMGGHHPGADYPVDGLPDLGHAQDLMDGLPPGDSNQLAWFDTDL"}, "source": "patent US9173871B2", "about": "“Oxazole and thiazole compounds as beta-catenin modulators and uses thereof” (New York University, priority 2008, dated 2015)", "key": {"[1]": {"target": "T1, AR and β-catenin interaction (Homo sapiens, UniProt P35222)", "T1 construct": "Nuclear extracts were immunoprecipitated with anti-AR antibody or normal mouse IgG; endogenous in cells; host or cells: LNCaP cells (nuclear extracts)", "test": "Co-immunoprecipitation of AR and β-catenin from LNCaP nuclear extracts", "type": "cell-based", "settings": "10 nM R1881, 20 μM C3, 4 hr", "description": "(§1) A) LNCaP cells were androgen-deprived for 48 hr and then treated with vehicle or 10 nM R1881 with or without 20 μM C3 for 4 hr. Nuclear extracts were immunoprecipitated with anti-AR antibody or normal mouse IgG followed by immunoblotting (IB) with indicated antibodies. B) LNCaP cells were hormone deprived for 3 days and then treated with vehicle or 100 nM DHT with or without 20 μM C3 for 2, 4 or 16 hr. Cells were crosslinked and chromatin was immunoprecipitated with β-catenin or IgG antibody. The precipitated DNA of the PSA enhancer was analyzed by Q-PCR. The results are presented as a percentage of input.\n(§2) 280(45): 37853-67; Yumoto et al., Proc Natl Acad Sci USA, 2012. 109(1): 143-8]. […] To test this hypothesis, LNCaP cells were treated with 10 nMR1881 in the presence or absence of C3."}, "[2]": {"target": "T2, β-catenin on the PSA enhancer (Homo sapiens, UniProt P35222)", "T2 construct": "Cells were crosslinked and chromatin was immunoprecipitated with β-catenin or IgG antibody; endogenous in cells; host or cells: LNCaP cells", "test": "Chromatin immunoprecipitation (ChIP) of β-catenin on the PSA enhancer in LNCaP cells", "type": "cell-based", "settings": "100 nM DHT, 20 μM C3", "description": "as §1, §2"}, "[3]": {"target": "β-catenin and TCF4 interaction (Homo sapiens, UniProt P35222)", "settings": "Gonsalves et al., PNAS 2011; cited from earlier work"}}, "data": [{"smiles": "CCc1ccc(-c2nc(CSCC(=O)NCCc3ccccc3)c(C)o2)cc1", "note": "[Compound C3]", "values": [{"measurement": "AR interaction with β-catenin", "setting": "[1]", "result": "greatly diminishes"}, {"measurement": "β-catenin on the PSA enhancer (ChIP)", "setting": "[2]", "result": "diminished"}, {"measurement": "β-catenin and TCF4 interaction", "setting": "[3]", "result": "interferes"}]}]}
